{"sequences": {"note": "By UniProt entry, the sequences of proteins in these tests, tags left out.", "UniProt Q04609, whole entry": "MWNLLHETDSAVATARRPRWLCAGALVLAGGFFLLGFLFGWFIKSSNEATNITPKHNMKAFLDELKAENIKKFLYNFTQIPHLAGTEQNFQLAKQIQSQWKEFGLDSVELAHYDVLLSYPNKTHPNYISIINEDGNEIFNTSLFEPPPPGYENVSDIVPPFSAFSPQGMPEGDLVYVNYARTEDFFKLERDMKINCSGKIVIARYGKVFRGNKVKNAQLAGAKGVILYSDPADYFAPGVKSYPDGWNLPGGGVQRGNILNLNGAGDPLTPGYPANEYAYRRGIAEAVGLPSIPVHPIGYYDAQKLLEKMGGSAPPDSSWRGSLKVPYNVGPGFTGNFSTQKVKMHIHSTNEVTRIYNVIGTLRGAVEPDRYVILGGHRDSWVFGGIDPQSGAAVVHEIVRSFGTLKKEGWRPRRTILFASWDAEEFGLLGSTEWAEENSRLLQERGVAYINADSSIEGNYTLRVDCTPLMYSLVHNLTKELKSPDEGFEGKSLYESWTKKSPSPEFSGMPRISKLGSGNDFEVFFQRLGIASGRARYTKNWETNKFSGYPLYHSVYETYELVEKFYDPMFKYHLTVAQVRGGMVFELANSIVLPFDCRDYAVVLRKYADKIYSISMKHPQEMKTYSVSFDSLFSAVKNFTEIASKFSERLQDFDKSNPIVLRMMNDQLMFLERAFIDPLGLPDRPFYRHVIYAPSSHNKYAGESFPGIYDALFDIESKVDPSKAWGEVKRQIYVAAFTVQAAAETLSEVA"}, "source": "ChEMBL document CHEMBL2150994", "about": "“Design, synthesis, and pharmacological evaluation of glutamate carboxypeptidase II (GCPII) inhibitors based on thioalkylbenzoic acid scaffolds” (J Med Chem, 2012)", "target": "Glutamate carboxypeptidase 2 (Homo sapiens, UniProt Q04609)", "experiment": "Inhibition of human recombinant GCP2 using N-acetyl-L-aspartyl-[3H]-L-glutamate as substrate by microplate assay", "in_short": "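Radiometric enzyme assay using purified human recombinant GCPII with N-acetyl-L-aspartyl-[3H]-L-glutamate as substrate. IC50 was determined.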"}
{"smiles": "O=C(O)c1cc(CS)ccc1OCc1ccccc1", "values": [{"measurement": "IC50", "value": 420, "unit": "nM"}]}
